# Reference: PMC3779200, “Structural, Biochemical and Genetic Characterization of Dissimilatory ATP Sulfurylase from Allochromatium vinosum” (PLoS ONE, 2013)
# B1: ATP sulfurylase (ATPS) from Allochromatium vinosum, sat-encoded dissimilatory ATP sulfurylase (enzyme)
# chain: MIKPVGSDELRPRFVYDPEQHHRLSSEAESLPSVIVSSQAAGNAVMLGAGYFSPLDGFMNLADALSSAQSMTLTDGRFFPVPLLCLLESADAIAGATRIALRDPNVEGNPVLAVMDVTAVEQVSDAQMALMTEQVYGTSDPKHPGVETFNSQGRTAISGPIQVLNFSYFQTDFPDTFRTAVEIRHEIQERGWQKIVAFQTRNPMHRAHEELCKMAMEAVEADGVVIHMLLGQLKPGDIPAPVRDAAIRTMAELYFPPNTVMVTGYGFDMLYAGPREAVLHAYFRQNMGATHFIIGRDHAGVGDYYGPFDAQTIFDDAVPTDVLAIEIFRADNTAYSKKLGRVVMMRDAPDHTPDDFIQLSGTRVREMLGQGEAPPPEFSRPEVAQILMDYYRSLPQS
# notes: ATP sulfurylase encoded by the sat gene of Allochromatium vinosum (Alvin_1118; E.C; 2.7.7.4); sat gene amplified from chromosomal DNA and cloned between NdeI and BamHI of pET-11a; the structure describes domains I (1-172), II (173-331) and III (332-396); The protein for crystallization was purified without a nickel column; a His-tagged protein is named only for the kinetic characterization, …
# Substrate: Nc1ncnc2c1ncn2[C@@H]1O[C@H](COP(=O)(O)OS(=O)(=O)O)[C@@H](O)[C@H]1O
# Test: purified protein
# Conditions: pH 8.0; 30.0 °C
protein,measurement,value
B1,Km,9.5 µM
